{"source": "paper PMC8910432", "about": "(International Journal of Molecular Sciences, 2022)", "molecular_target": "SARS-CoV-2 3CLpro (Severe acute respiratory syndrome coronavirus 2, UniProt P0DTD1)"}
{"compound": "O=C(OC[C@H]1OC(OC(=O)c2cc(O)c(O)c(OC(=O)c3cc(O)c(O)c(O)c3)c2)[C@H](OC(=O)c2cc(O)c(O)c(OC(=O)c3cc(O)c(O)c(O)c3)c2)[C@@H](OC(=O)c2cc(O)c(O)c(OC(=O)c3cc(O)c(O)c(O)c3)c2)[C@@H]1OC(=O)c1cc(O)c(O)c(OC(=O)c2cc(O)c(O)c(O)c2)c1)c1cc(O)c(O)c(OC(=O)c2cc(O)c(O)c(O)c2)c1", "note": "(stereo partly drawn) [TA, 1,2,3,4,6-penta-O-{3,4-dihydroxy-5-((3,4,5-trihydroxybenzoyl)oxy)benzoyl}-D-glucopyranose]", "values": [{"measurement": "concentration from which inhibitory effect on 3CLpro activity is significant", "result": "≥ 0.1", "unit": "µM"}]}
